Assay results from ChEMBL document CHEMBL2176932, “De novo cyclic pseudopeptides containing aza-β3-amino acids exhibiting antimicrobial activities” (J Med Chem, 2012).
Values after ≈ are worked out from the molar mass of the structure shown.

Assays:
Type in all cases: functional
[1] = test system: Listeria monocytogenes; assay: Antibacterial activity against Listeria monocytogenes SOR 100 after 48 hrs by microtiter broth dilution method; conditions: SOR 100, 48 h
[2] = test system: Staphylococcus aureus; assay: Antibacterial activity against Staphylococcus aureus ATCC 25923 after 48 hrs by microtiter broth dilution method; conditions: ATCC 25923, 48 h
[3] = test system: Escherichia coli; assay: Antibacterial activity against Escherichia coli ATCC 25922 after 48 hrs by microtiter broth dilution method; conditions: ATCC 25922, 48 h
[4] = test system: Pseudomonas aeruginosa; assay: Antibacterial activity against Pseudomonas aeruginosa ATCC 27853 after 48 hrs by microtiter broth dilution method; conditions: ATCC 27853, 48 h

SMILES: CC[C@H](C)[C@H](NC(=O)CN)C(=O)NCC(=O)N[C@@H](C)C(=O)N[C@H](C(=O)N[C@@H](CC(C)C)C(=O)N[C@@H](CCCCN)C(=O)N[C@H](C(=O)N[C@@H](CC(C)C)C(=O)N[C@H](C(=O)N[C@H](C(=O)NCC(=O)N[C@@H](CC(C)C)C(=O)N1CCC[C@H]1C(=O)N[C@@H](C)C(=O)N[C@@H](CC(C)C)C(=O)N[C@H](C(=O)N[C@@H](CO)C(=O)N[C@@H](Cc1c[nH]c2ccccc12)C(=O)N[C@H](C(=O)N[C@@H](CCCCN)C(=O)N[C@@H](CCCNC(=N)N)C(=O)N[C@@H](CCCCN)C(=O)N[C@@H](CCCNC(=N)N)C(=O)N[C@@H](CCC(N)=O)C(=O)N[C@@H](CCC(N)=O)C(N)=O)[C@@H](C)CC)[C@@H](C)CC)[C@@H](C)O)[C@@H](C)O)C(C)C)C(C)C [MELITTIN]
- MIC [1]: 3.12 µM (≈ 8.88 µg/mL)
- MIC [2]: 25 µM (≈ 71.2 µg/mL)
- MIC [3]: 6.25 µM (≈ 17.8 µg/mL)
- MIC [4]: 50 µM (≈ 142 µg/mL)
